Test results published in US20220023273A1, “METHODS FOR TREATING SYMPTOMS AND DISORDERS ASSOCIATED WITH LYSOSOMAL STORAGE DISEASES” (GENZYME CORPORATION, priority 2019, published 2022).

Experiments:
Type in all cases: in vivo, human
[1] = Phase 1 Study 1 Part 2: PK with and without a high-fat meal; details: healthy men, single oral 5 mg
Experimental: (§1) Study 1 was a 2-part single-center trial in healthy adult male volunteers. Part 1 was a double-blind, randomized, placebo-controlled sequential ascending single-dose study of Compound 2 for safety, tolerability, and PK. Part 2 was an open-label, single-cohort, randomized, 2-sequence, 2-period, 2-treatment crossover study of Compound 2 for PK with and without a high-fat meal.
(§2) In Part 1 the subjects were randomized to receive 2, 5, 15, 25, 50, 100, or 150 mg of Compound 2 (L-malic salt form) or matching placebo on the morning of the first day after at least a 10-hour fast. In Part 2, the subjects were randomized to receive a single oral dose of 5 mg Compound 2 either while fasting (at least 10 hours before and 4 hours after administration) or 30 minutes after a standardized high-fat breakfast (˜815 kcal). After a 7-day washout period, participants were crossed over to the other condition.
In Study 1, Part 2, blood was sampled for plasma concentrations if Compound 2 at 0, 0.5, 1, 2, 3, 4, 5, 6, 8, 10, 12, 16, 24, and 48 hours post-dose.

[2] = Phase 1 Study 2: ascending repeated-dose pharmacokinetics
[3] = Phase 1 Study 1 Part 1: ascending single-dose pharmacokinetics; details: 75-fold dose increase (2 to 150 mg), single oral
Source text: as §1
Part 1 of the study enrolled and randomized 55 healthy men (placebo, n=14; 2-, 5-, 15, 25-, 50, and 100-mg doses, n=6 each; 150-mg dose, n=5). Eight healthy men participated in Part 2.
as §2
In Study 1, Part 1, blood was sampled for plasma concentrations of Compound 2 at the time of study drug administration (0 hour) and 0.5, 1, 2, 3, 4, 5, 6, 8, 10, 12, 16, 24, 48, 72, and 96 hours post-dose. Urine samples were collected for analysis of Compound 2 concentrations beginning 2 hours before study drug administration through 48 hours afterward.

[4] = system: plasma GL-1, GL-3, and GM3; test: Phase 1 Study 2: pharmacodynamics; details: Day 15, healthy adults
Experimental: The study enrolled and randomized 36 healthy adults (19 men and 17 women) (n=9 each to group).
Pharmacodynamic endpoints (plasma GL-1, GL-3, and GM3 concentrations) were assessed on Days 1-5, 8, 11, 13, and 14, at 0 hours […]; and on Day 15, at 24 hours after the Day 14 dose.

[5] = 4-fold dose increase (5-20 mg), Day 14

CC(C)(NC(=O)O[C@@H]1CN2CCC1CC2)c1csc(-c2ccc(F)cc2)n1 [Compound 2, (S)-quinuclidin-3-yl (2-(2-(4-fluorophenyl)thiazol-4-yl)propan-2-yl)carbamate]
Fed/fasted geometric mean ratio, AUClast [1]: 0.91
Fed/fasted geometric mean ratio, Cmax [1]: 0.92
fold increase in geometric mean AUC0-24 [2, 5]: 3.69 fold
fold increase in geometric mean Cmax [2, 5]: 3.76 fold
fold CLR lower than observed plasma CL/F ([2]; after 14 once-daily doses, 5-20 mg): 3.18-3.86 fold
fold increase in geometric mean AUCinf [3]: 85.9 fold
fold increase in geometric mean AUClast [3]: 89.2 fold
fold increase in geometric mean Cmax [3]: 97.3 fold
GL-1, point estimate of treatment ratio vs placebo ([4]; 5 mg once daily 14 days): 0.39
GL-3, point estimate of treatment ratio vs placebo ([4]; 5 mg once daily 14 days): 0.61
GM3, point estimate of treatment ratio vs placebo ([4]; 5 mg once daily 14 days): 0.56
GL-1, point estimate of treatment ratio vs placebo ([4]; 10 mg once daily 14 days): 0.32
GL-3, point estimate of treatment ratio vs placebo ([4]; 10 mg once daily 14 days): 0.69
GM3, point estimate of treatment ratio vs placebo ([4]; 10 mg once daily 14 days): 0.49
GL-1, point estimate of treatment ratio vs placebo ([4]; 20 mg once daily 14 days): 0.23
GL-3, point estimate of treatment ratio vs placebo ([4]; 20 mg once daily 14 days): 0.67
GM3, point estimate of treatment ratio vs placebo ([4]; 20 mg once daily 14 days): 0.40
